{"sequences": {"note": "By UniProt entry, the sequences of proteins in these tests, tags left out.", "UniProt P50406, whole entry": "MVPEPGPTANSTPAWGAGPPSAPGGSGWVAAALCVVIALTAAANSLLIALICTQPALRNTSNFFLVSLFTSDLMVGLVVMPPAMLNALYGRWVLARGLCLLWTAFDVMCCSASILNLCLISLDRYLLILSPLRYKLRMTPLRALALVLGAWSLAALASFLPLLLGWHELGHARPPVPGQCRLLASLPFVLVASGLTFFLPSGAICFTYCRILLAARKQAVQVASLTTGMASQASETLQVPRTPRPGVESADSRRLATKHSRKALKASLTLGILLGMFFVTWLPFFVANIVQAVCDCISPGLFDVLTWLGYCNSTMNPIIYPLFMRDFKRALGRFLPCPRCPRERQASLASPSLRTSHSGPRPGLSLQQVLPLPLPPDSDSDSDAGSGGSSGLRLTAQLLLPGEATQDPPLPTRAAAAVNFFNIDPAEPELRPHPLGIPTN"}, "source": "ChEMBL document CHEMBL1933007", "about": "“Novel brain penetrant benzofuropiperidine 5-HT₆ receptor antagonists” (Bioorg Med Chem Lett, 2012)", "biological_target": "5-hydroxytryptamine receptor 6 (Homo sapiens, UniProt P50406)", "assay": "Antagonist activity at human recombinant 5-HT6 receptor expressed human astrocytoma cells assessed as inhibition of 5-HT-induced cAMP accumulation after 10 mins preincubation by HTRF assay"}
{"smiles": "O=S(=O)(c1cccc(F)c1)c1ccc2c3c(oc2c1)C1(CCCOC1)NCC3", "note": "(stereo in doubt; 2)", "values": [{"measurement": "IC50", "value": 9.8, "unit": "nM"}]}
